Data on one compound can be found in PMC7132610 (Saudi Pharmaceutical Journal : SPJ, 2020).

The chains behind the UniProt entries cited, without tags or fusion partners.
UniProt P27338, whole entry: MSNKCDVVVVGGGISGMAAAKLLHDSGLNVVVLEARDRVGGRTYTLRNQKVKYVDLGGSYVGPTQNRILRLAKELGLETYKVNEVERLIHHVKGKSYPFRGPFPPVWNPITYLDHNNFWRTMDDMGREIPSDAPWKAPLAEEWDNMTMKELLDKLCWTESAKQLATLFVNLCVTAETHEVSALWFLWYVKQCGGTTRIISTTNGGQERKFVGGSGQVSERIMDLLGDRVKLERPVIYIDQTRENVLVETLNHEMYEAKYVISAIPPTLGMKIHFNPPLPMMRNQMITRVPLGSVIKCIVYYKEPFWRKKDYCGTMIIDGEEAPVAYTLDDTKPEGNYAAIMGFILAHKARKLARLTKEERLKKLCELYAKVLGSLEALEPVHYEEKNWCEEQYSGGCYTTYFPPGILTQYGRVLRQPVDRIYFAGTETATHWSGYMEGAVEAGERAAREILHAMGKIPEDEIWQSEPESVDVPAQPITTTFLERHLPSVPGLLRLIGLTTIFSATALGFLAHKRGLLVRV
UniProt P21397, whole entry: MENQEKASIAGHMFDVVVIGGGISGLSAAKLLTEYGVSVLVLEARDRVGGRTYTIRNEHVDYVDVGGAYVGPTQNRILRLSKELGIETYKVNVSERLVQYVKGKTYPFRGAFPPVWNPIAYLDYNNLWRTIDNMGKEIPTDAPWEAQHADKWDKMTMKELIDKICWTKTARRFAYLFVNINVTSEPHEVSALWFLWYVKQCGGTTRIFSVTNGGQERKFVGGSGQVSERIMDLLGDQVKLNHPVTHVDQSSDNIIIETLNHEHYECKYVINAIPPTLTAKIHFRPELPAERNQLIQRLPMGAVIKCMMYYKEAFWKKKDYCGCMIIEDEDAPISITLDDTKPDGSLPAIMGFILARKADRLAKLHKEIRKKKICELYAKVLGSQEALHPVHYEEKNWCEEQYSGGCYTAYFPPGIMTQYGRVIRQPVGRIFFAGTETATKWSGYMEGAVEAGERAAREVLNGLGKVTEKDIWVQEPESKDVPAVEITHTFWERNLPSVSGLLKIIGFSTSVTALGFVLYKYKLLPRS

The target of assay [1] is T1, recombinant human MAO-B (Homo sapiens, UniProt P27338). As to the kind of experiment: biochemical.
Assay [2] deals with T1, recombinant human MAO-B. The assay is described as follows: biochemical. The source holds these as a separate data set.
The target of the next assay is recombinant human MAO-A (Homo sapiens, UniProt P21397). The assay is described as follows: Kynuramine oxidative deamination assay, MAO-A inhibition. It is filed as biochemical.

Each structure is given as a SMILES string. Where a name gives a salt, the structure may show the parent alone.

As to `NNCCc1ccccc1` [Phenelzine, phenelzine sulfate, reference compound], the IC50 on recombinant human MAO-B [1] came out at 131 ± 23 nM; on recombinant human MAO-A, 221 ± 9 nM. On recombinant human MAO-B [2], the Ki is 61.6 ± 6.2 nM.

Broadly, the IC50 is the concentration needed to halve the response being measured. By Ki is commonly meant the dissociation constant of the complex between target and ligand, obtained from inhibition or displacement.
